# Assay results from PubChem BioAssay (EPA / NIEHS).
# The list shows a part of the results, in another mix than the full data. Active and inactive are the calls of the source. How the source made its calls: active means hit-call score of the fitted dose curve at least 0.9, where 1 is the maximum; inactive means score below 0.9.
# How the values were obtained:
# Details in all cases: actives raise or lower the signal; mRNA level, 48 h
# [1] = read-out: Cytochrome P450 (CYP1A1), CYP1A1 (gene 1543); assay: LTEA_HepaRG_CYP1A1: Life Technologies and Expression Analysis (LTEA) Assay for Cytochrome P450 (CYP1A1) using HepaRG (AID 2283454)
# Summary of the method: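 CYP1A1 transcript levels measured by Fluidigm qRT-PCR against three housekeeping genes, 48 h after chemical dosing of human HepaRG cells (highest concentration 100 uM, half-log steps, 0.5% DMSO vehicle). Gain or loss of signal fitted relative to DMSO.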
# [2] = read-out: CFLAR gene, CFLAR (gene 8837); assay: LTEA_HepaRG_CFLAR: Life Technologies and Expression Analysis (LTEA) Assay for CFLAR gene using HepaRG (AID 2283455)
# Summary of the method: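 HepaRG, 48 h exposure, 8-pt conc-response (100 uM top, half-log), 0.5% DMSO vehicle, duplicates. CFLAR expression by qRT-PCR; ACTB/GAPDH/POLR2A normalization; gain or loss fit vs DMSO baseline.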
# [3] = read-out: Forkhead box O1 (FOXO1), FOXO1 (gene 2308); assay: LTEA_HepaRG_FOXO1: Life Technologies and Expression Analysis (LTEA) Assay for Forkhead box O1 (FOXO1) using HepaRG (AID 2283456)
# Summary of the method: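 Readout is FOXO1 transcript level by multiplexed qRT-PCR against three housekeeping genes, curve-fitted in both directions relative to 0.5% DMSO vehicle. Human HepaRG cultures received chemicals for 48 h, up to 100 uM in half-log steps.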
# [4] = read-out: growth arrest and DNA damage 45 (GADD45A), GADD45A (gene 1647); assay: LTEA_HepaRG_GADD45A: Life Technologies and Expression Analysis (LTEA) Assay for growth arrest and DNA damage 45 (GADD45A) using HepaRG (AID 2283458)
# Summary of the method: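 Cells plated and cultured 48 h, switched to serum-free induction medium, then dosed for 48 h (100 uM top, half-log dilutions, 0.5% DMSO). RNA was isolated and transcript measured by Fluidigm qRT-PCR.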
# [5] = read-out: Forkhead box O3 (FOXO3), FOXO3 (gene 2309); assay: LTEA_HepaRG_FOXO3: Life Technologies and Expression Analysis (LTEA) Assay for Forkhead box O3 (FOXO3) using HepaRG (AID 2283459)
# Summary of the method: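 HepaRG, 48 h post-dose; 8 conc., half-log from 100 uM, 0.5% DMSO, duplicates; serum-free induction medium. Readout: FOXO3 mRNA, TaqMan qRT-PCR, housekeeping-normalized. Bidirectional curve fit vs DMSO baseline.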
# [6] = read-out: ABC Transporter (ABCB1), ABCB1 (gene 5243); assay: LTEA_HepaRG_ABCB1: Life Technologies and Expression Analysis (LTEA) Assay for ABC Transporter (ABCB1) using HepaRG (AID 2283460)
# Summary of the method: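 Expression of ABCB1 was quantified by qRT-PCR against three housekeeping genes after human HepaRG cultures received test chemicals for 48 hours. Concentrations spanned eight half-log steps topping at 100 uM in 0.5% DMSO; gain or loss of signal was fitted relative to vehicle.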
# [7] = read-out: growth arrest and DNA damage 45 (GADD45B), GADD45B (gene 4616); assay: LTEA_HepaRG_GADD45B: Life Technologies and Expression Analysis (LTEA) Assay for growth arrest and DNA damage 45 (GADD45B) using HepaRG (AID 2283461)
# Summary of the method: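 Transcript level quantified by Fluidigm TaqMan qRT-PCR with three housekeeping genes for normalization, analyzed for up- or down-regulation against 0.5% DMSO. HepaRG cultures dosed 48 h at eight half-log concentrations up to 100 uM, duplicates.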
# [8] = read-out: ABC Transporter (ABCC3), ABCC3 (gene 8714); assay: LTEA_HepaRG_ABCC3: Life Technologies and Expression Analysis (LTEA) Assay for ABC Transporter (ABCC3) using HepaRG (AID 2283462)
# Summary of the method: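 Transcript level by TaqMan qRT-PCR, normalised to three housekeeping genes, fitted in both directions relative to vehicle. Chemicals tested in duplicate at eight half-log concentrations up to 100 uM for 48 h on HepaRG cells (0.5% DMSO).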
# [9] = read-out: ABC Transporter (ABCB11), ABCB11 (gene 8647); assay: LTEA_HepaRG_ABCB11: Life Technologies and Expression Analysis (LTEA) Assay for ABC Transporter (ABCB11) using HepaRG (AID 2283463)
# Summary of the method: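 ABCB11 transcript levels are read by Fluidigm TaqMan qRT-PCR after 48 h chemical treatment of human HepaRG cells. Concentrations span 100 uM downward in half-log steps with 0.5% DMSO; gain or loss is fitted against DMSO controls.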
# [10] = read-out: ABC Transporter (ABCC2), ABCC2 (gene 1244); assay: LTEA_HepaRG_ABCC2: Life Technologies and Expression Analysis (LTEA) Assay for ABC Transporter (ABCC2) using HepaRG (AID 2283464)
# Summary of the method: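 Endpoint is ABCC2 transcript level from qRT-PCR, normalized to three housekeeping genes and fitted bidirectionally relative to DMSO. Human HepaRG cells received test chemical for 48 h at up to 100 uM (8 points, half-log steps, 0.5% DMSO), duplicate wells.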
structure (smiles),measurement,setting,value
O=[N+]([O-])c1ccccc1[N+](=O)[O-],AC50,[1],active: 63.9 µM
same,outcome,[2],inactive
same,outcome,[3],inactive
same,outcome,[4],inactive
same,outcome,[5],inactive
same,outcome,[6],inactive
same,outcome,[7],inactive
same,outcome,[8],inactive
same,outcome,[9],inactive
same,outcome,[10],inactive
